The assay concerns the target T1, Nitric oxide synthase 3 (Bos taurus, UniProt P29473).
T1 sequence (P29473 whole entry): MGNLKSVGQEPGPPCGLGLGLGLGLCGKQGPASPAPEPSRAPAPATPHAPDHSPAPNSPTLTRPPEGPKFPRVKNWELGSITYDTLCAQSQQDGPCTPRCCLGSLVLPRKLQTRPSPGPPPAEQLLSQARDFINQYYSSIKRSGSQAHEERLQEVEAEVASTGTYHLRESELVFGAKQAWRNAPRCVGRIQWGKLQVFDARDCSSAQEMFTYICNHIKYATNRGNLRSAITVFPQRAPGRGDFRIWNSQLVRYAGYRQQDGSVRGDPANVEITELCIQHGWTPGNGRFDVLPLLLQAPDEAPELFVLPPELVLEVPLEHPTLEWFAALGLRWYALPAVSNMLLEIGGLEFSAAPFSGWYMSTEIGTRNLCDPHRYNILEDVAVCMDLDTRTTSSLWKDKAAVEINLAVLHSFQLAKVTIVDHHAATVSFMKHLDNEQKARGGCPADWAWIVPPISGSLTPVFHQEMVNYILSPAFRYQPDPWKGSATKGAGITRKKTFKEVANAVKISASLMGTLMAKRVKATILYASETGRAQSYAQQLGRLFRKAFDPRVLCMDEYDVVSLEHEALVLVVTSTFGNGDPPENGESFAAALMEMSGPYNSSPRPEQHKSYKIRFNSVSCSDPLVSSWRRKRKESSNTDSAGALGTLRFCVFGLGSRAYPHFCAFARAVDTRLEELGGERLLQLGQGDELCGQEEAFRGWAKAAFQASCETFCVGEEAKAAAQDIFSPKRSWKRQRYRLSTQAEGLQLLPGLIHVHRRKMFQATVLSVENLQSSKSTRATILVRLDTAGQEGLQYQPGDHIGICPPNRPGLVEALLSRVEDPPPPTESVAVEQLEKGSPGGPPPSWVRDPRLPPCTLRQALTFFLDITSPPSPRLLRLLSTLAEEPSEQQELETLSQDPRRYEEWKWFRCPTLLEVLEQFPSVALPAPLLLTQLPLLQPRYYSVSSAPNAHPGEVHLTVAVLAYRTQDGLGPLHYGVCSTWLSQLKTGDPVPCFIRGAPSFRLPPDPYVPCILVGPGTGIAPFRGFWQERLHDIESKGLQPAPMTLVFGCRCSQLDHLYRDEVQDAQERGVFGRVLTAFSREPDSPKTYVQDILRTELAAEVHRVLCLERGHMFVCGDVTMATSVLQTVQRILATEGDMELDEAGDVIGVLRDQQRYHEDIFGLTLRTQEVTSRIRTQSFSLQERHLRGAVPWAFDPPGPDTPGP
The experiment in a line: Inhibitory activity of conversion of radiolabeled arginine to citrulline by isomeric form of nitric oxide synthase Endothelial nitric oxide synthase from cultured bovine aortic endothelial cells. The format is cell-based, Endothelial cell. An outline of the steps: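 eNOS taken from the CHAPS-solubilized particulate fraction of cultured bovine aortic endothelial cells. Incubated 20 min at ambient temperature with 10 μM L-[2,3-3H]arginine, 1 mM NADPH, 2 mM CaCl2 and graded inhibitor. Stopped at pH 5.5 with EGTA/EDTA; [3H]citrulline isolated on cation-exchange column and counted by scintillation. IC50.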

By IC50 is commonly meant the concentration that inhibits the measured activity by half. A lower IC50 goes with greater potency in that assay.

As to `N=C(NCCC[C@H](N)C(=O)O)N[N+](=O)[O-]` [NITROARGININE], the midpoint of inhibition, the IC50, lay at 1200 nM.
